From PMC4535766, “Antiprotozoal Activity Profiling of Approved Drugs: A Starting Point toward Drug Repositioning” (PLoS ONE, 2015)

System: P. falciparum strain K1
Assay: In vitro activity against P. falciparum, serial drug dilution assay

## CN[C@H]1CC[C@@H](c2ccc(Cl)c(Cl)c2)c2ccccc21 [Sertraline]
  Activity against P. falciparum (in words): micromolar range
